From US20250034579A1, “METHODS AND COMPOSITIONS FOR GENETICALLY MODIFYING HUMAN GUT MICROBES” (Cornell University, priority 2021, published 2025) come the findings set out here.

The experiment deals with Clostridia microbes. The settings on record: 92 Clostridia microbes; TSAB or BHIB plates with 15 μg/mL thiamphenicol.

Structures are written as SMILES.

`CS(=O)(=O)c1ccc([C@@H](O)[C@@H](CO)NC(=O)C(Cl)Cl)cc1` [thiamphenicol]: the sensitivity to thiamphenicol result is given as “all sensitive”.
